# Permeability data for macrocyclic peptides

Collected by the curators of CycPeptMPDB (Li et al. 2023) from Townsend et al. 2020, doi:10.26434/chemrxiv.13335941.v1.

PAMPA is the parallel artificial membrane permeability assay, which has no cells and reads passive diffusion.
Permeability is given as log10 of P in cm/s; higher (less negative) is more permeable.

For CCCN1CC(=O)N[C@H](CC(C)C)C(=O)N[C@@H](CC(C)C)C(=O)N2CCC[C@H]2C(=O)N(Cc2ccccc2)CC(=O)N[C@@H](Cc2ccccc2)C1=O the data give PAMPA -5.50 (log10 cm/s). For CC(C)C[C@@H]1NC(=O)[C@H](C)NC(=O)[C@H](Cc2ccccc2)NC(=O)[C@H](CC(C)C)N(C)C(=O)[C@H]2CCCN2C(=O)[C@@H](CC(C)C)NC1=O the data give PAMPA -6.55 (log10 cm/s). Listed for CC(C)C[C@H]1NC(=O)[C@H](C)N(C)C(=O)[C@@H]2CCCN2C(=O)[C@H](Cc2ccccc2)NC(=O)[C@H](CC(C)C)N(C)C(=O)[C@@H]2CCCN2C(=O)[C@H](CC(C)C)N(C)C1=O: PAMPA -5.59 (log10 cm/s). For CCCN1CC(=O)N[C@@H](CC(C)C)C(=O)N[C@@H](CC(C)C)C(=O)N2CCC[C@@H]2C(=O)N(C)[C@@H](CC(C)C)C(=O)N[C@@H](Cc2ccccc2)C1=O the data give PAMPA -5.16 (log10 cm/s). CC(C)C[C@H]1NC(=O)[C@H](CC(C)C)N(C)C(=O)[C@@H](C)NC(=O)[C@H](Cc2ccccc2)NC(=O)[C@H](CC(C)C)N(C)C(=O)[C@H]2CCCN2C1=O has PAMPA -5.23 (log10 cm/s). For CC(C)C[C@@H]1C(=O)N2CCC[C@H]2C(=O)N(Cc2ccccc2)CC(=O)N[C@@H](Cc2ccccc2)C(=O)N2CCC[C@@H]2C(=O)N[C@H](C)C(=O)N(C)[C@@H](CC(C)C)C(=O)N1C the data give PAMPA -5.91 (log10 cm/s). For CC(C)C[C@@H]1NC(=O)C[C@H](Cc2ccccc2)NC(=O)[C@@H]2CCCN2C(=O)[C@H](Cc2ccccc2)NC(=O)[C@H](CC(C)C)N(C)C(=O)[C@H]2CCCN2C(=O)[C@@H](CC(C)C)N(C)C1=O the data give PAMPA -5.20 (log10 cm/s).

Listed for CC(C)C[C@@H]1C(=O)N(Cc2ccccc2)CC(=O)N2CCC[C@H]2C(=O)N[C@H](CC(C)C)C(=O)N[C@@H](Cc2ccccc2)C(=O)N(C)[C@@H](C)C(=O)N1C: PAMPA -5.84 (log10 cm/s). For CC(C)C[C@@H]1C(=O)N2CCC[C@H]2C(=O)N(Cc2ccccc2)CC(=O)N[C@@H](Cc2ccccc2)C(=O)N(C)[C@H](C)C(=O)N[C@H](CC(C)C)C(=O)N1C the data give PAMPA -5.13 (log10 cm/s). For CC(C)C[C@@H]1NC(=O)[C@@H](C)N(C)C(=O)[C@@H]2CCCN2C(=O)[C@H](Cc2ccccc2)NC(=O)CN(Cc2ccccc2)C(=O)[C@@H]2CCCN2C(=O)[C@@H](CC(C)C)NC1=O the data give PAMPA -6.38 (log10 cm/s). The entry for CC(C)C[C@@H]1NC(=O)[C@H](C)N(C)C(=O)[C@H](Cc2ccccc2)NC(=O)CN(Cc2ccccc2)C(=O)[C@H]2CCCN2C(=O)C[C@H](Cc2ccccc2)NC1=O lists PAMPA -5.81 (log10 cm/s). CCCN1CC(=O)N[C@H](CC(C)C)C(=O)N(Cc2ccccc2)CC(=O)N2CCC[C@@H]2C(=O)N[C@H](CC(C)C)C(=O)N[C@@H](Cc2ccccc2)C1=O has PAMPA -5.43 (log10 cm/s). CC(C)C[C@@H]1NC(=O)[C@H]2CCCN2C(=O)C[C@H](Cc2ccccc2)NC(=O)CN(Cc2ccccc2)C(=O)C[C@H](Cc2ccccc2)NC(=O)[C@H]2CCCN2C(=O)[C@H](Cc2ccccc2)NC1=O is reported with PAMPA -6.10 (log10 cm/s). For CC(C)C[C@@H]1NC(=O)[C@@H]2CCCN2C(=O)[C@@H](CC(C)C)N(C)C(=O)[C@@H](CC(C)C)N(C)C(=O)[C@H](C)NC(=O)[C@@H]2CCCN2C(=O)[C@H](Cc2ccccc2)NC1=O the data give PAMPA -5.73 (log10 cm/s).

Extract of 2 entries:

SMILES	PAMPA (log10 cm/s)
CC(C)C[C@@H]1NC(=O)[C@H]2CCCN2C(=O)C[C@H](Cc2ccccc2)NC(=O)CN(Cc2ccccc2)C(=O)C[C@H](Cc2ccccc2)NC(=O)[C@H]2CCCN2C(=O)[C@H](Cc2ccccc2)NC1=O	-6.10
CCCN1CC(=O)N[C@@H](CC(C)C)C(=O)N[C@@H](CC(C)C)C(=O)N2CCC[C@@H]2C(=O)N(C)[C@@H](CC(C)C)C(=O)N[C@@H](Cc2ccccc2)C1=O	-5.16

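Conditions beyond the assay type are not listed; see the original paper. The list need not hold all peptides of the study. Entries at the database's floor value (log10 P of -10) are not listed.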